Values of other authors, collected in patent publication US6340703B1, “Treatment or prevention of osteoporosis” (Novogen, Inc., priority 1997, dated 2002).

System: estrogen receptors
Settings: relative to 17p-estradiol 100; cited from earlier work

In the case of O=c1c(-c2ccc(O)cc2)coc2cc(O)cc(O)c12 [genistein, reference compound], the relative estrogenicity is given as 1.3.
